# Experimental data taken from PubChem BioAssay AID2283701 (EPA ToxCast).
# The list shows a part of the results, in another mix than the full data. Results filed as inconclusive are left out. Activity calls are given as the source filed them. Rule for the calls: active = hit-call score of the fitted dose curve at least 0.9, where 1 is the maximum; inactive = score below 0.9.
# Read-out: xenobiotic metabolism (CYP2C9), CYP2C9 (gene 1559)
# Test: CLD_CYP2C9_48hr: CellzDirect (CLD) Gene Expression Assay for xenobiotic metabolism (CYP1A2) at 48 hours
# Protocol: CLD_48hr is a cell-based, multiplexed-readout assay that uses hepatocyte, a human liver primary cell, with measurements taken at 48 hours after chemical dosing in a 96-well plate.CLD_CYP2C9_48hr is one of 16 assay component(s) measured or calculated from the CLD_48hr assay. It is designed to make measurements of mRNA induction, a form of inducible reporter, as detected with chemiluminescence signals by Quantitative Nuclease Protection Assay (qNPA) technology.Data from the assay component CLD_CYP2C9_48hr was analyzed at the endpoint, CLD_CYP2C9_48hr, in the positive analysis fitting direction relative to DMSO as the negative control and baseline of activity. […] Furthermore, this assay endpoint can be referred to as a primary readout. […]
# Human hepatocyte cultures were treated daily for two consecutive days with fresh dosing solutions containing appropriate concentrations of the 320 ToxCast chemicals (chemical identities were blinded to CellzDirect and other ToxCast collaborators), vehicle control (0.2% DMSO), and positive control inducers as summarized in Table 1. […] Cultures for each treatment group (i.e., media, vehicle [0.2% DMSO], positive control inducers [multiple concentrations], and the ToxCast chemicals [multiple concentrations]) were observed and cell morphology was assessed relative to vehicle control cultures at each harvest time point (0, 6, 24, or 48 h). […]
row,SMILES,outcome
1,CC(C)OP(=S)(OC(C)C)SCCNS(=O)(=O)c1ccccc1,inactive
2,O=C1C2CC=CCC2C(=O)N1SC(Cl)(Cl)C(Cl)Cl (configuration not stated),inactive
